Assay results: PubChem BioAssay (NCI)
Where “and” joins values, the source holds several entries; their conditions need not be identical. Equal values may be shown once. Only a part is listed here, and it is no random draw.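 96-well plates, one dose, 48 hours. Percent growth reported; active if below 10.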 Calls of active or inactive are those of the source.

Key:
Experiment in all cases: NCI-60 one-dose screen, 48 h (100 = growth as untreated, 0 = no growth, -100 = all killed)
Conditions in all cases: 10 µM
EKVX NSCLC = test system: EKVX NSCLC
SN12C renal = test system: SN12C renal
UO-31 renal = test system: UO-31 renal
TK-10 renal = test system: TK-10 renal
ACHN renal = test system: ACHN renal
CAKI-1 renal = test system: CAKI-1 renal
A498 renal = test system: A498 renal
HL-60(TB) leukemia = test system: HL-60(TB) leukemia
CCRF-CEM leukemia = test system: CCRF-CEM leukemia
MOLT-4 leukemia = test system: MOLT-4 leukemia
SR leukemia = test system: SR leukemia
RPMI-8226 leukemia = test system: RPMI-8226 leukemia
OVCAR-8 ovarian = test system: OVCAR-8 ovarian
OVCAR-5 ovarian = test system: OVCAR-5 ovarian
OVCAR-4 ovarian = test system: OVCAR-4 ovarian
SK-OV-3 ovarian = test system: SK-OV-3 ovarian
IGROV1 ovarian = test system: IGROV1 ovarian
OVCAR-3 ovarian = test system: OVCAR-3 ovarian
HS 578T breast = test system: HS 578T breast
SK-MEL-2 melanoma = test system: SK-MEL-2 melanoma

Row | SMILES | growth (EKVX NSCLC) | growth (SN12C renal) | growth (UO-31 renal) | growth (TK-10 renal) | growth (ACHN renal) | growth (CAKI-1 renal) | growth (A498 renal) | growth (HL-60(TB) leukemia) | growth (CCRF-CEM leukemia) | growth (MOLT-4 leukemia) | growth (SR leukemia) | growth (RPMI-8226 leukemia) | growth (OVCAR-8 ovarian) | growth (OVCAR-5 ovarian) | growth (OVCAR-4 ovarian) | growth (SK-OV-3 ovarian) | growth (IGROV1 ovarian) | growth (OVCAR-3 ovarian) | growth (HS 578T breast) | growth (SK-MEL-2 melanoma)
1 | ClCCN1[C@@H](CCl)CC[C@@H]1c1ccccc1 | inactive: 102% | inactive: 97.4% | inactive: 89.1% | inactive: 116% | inactive: 98% | inactive: 64.4% | inactive: 107% | inactive: 59% | inactive: 66.7% | inactive: 75.6% | inactive: 57.8% | inactive: 94.2% | inactive: 88.9% | inactive: 111% | inactive: 105% | inactive: 96.1% | inactive: 100% | inactive: 102% | inactive: 103% | 
2 | Oc1ccc(O)c(CN(CCCl)CCCl)c1 |  | inactive: 97.1% | inactive: 78.4% | inactive: 104% | inactive: 93.5% | inactive: 77.2% | inactive: 123% | inactive: 79.7% |  | inactive: 73.7% | inactive: 63.2% | inactive: 104% | inactive: 97.3% | inactive: 108% | inactive: 116% | inactive: 96.7% | inactive: 67.1% | inactive: 96.4% | inactive: 106% | inactive: 115%
3 | CCOP(=O)(Cl)OCC |  | inactive: 105% | inactive: 86.7% | inactive: 102% | inactive: 99% | inactive: 85.3% | inactive: 110% | inactive: 95.7% |  | inactive: 98.9% | inactive: 88% | inactive: 98.4% | inactive: 98.1% | inactive: 99.3% | inactive: 104% | inactive: 104% | inactive: 87.5% | inactive: 101% | inactive: 102% | inactive: 108%
4 | Cc1ccc(CN(CCCl)CCCl)cc1C |  | inactive: 99.2% | inactive: 76.2% | inactive: 104% | inactive: 91.2% | inactive: 90.2% | inactive: 99.7% | inactive: 78.2% |  | inactive: 93.6% | inactive: 94.7% | inactive: 99.8% | inactive: 92.1% | inactive: 99.9% | inactive: 107% | inactive: 103% | inactive: 84.1% | inactive: 109% |  | inactive: 95.7%
5 | O=C(O)CCCCc1ccc(N(CCCl)CCCl)cc1 |  | inactive: 81.7% | inactive: 77% | inactive: 100% | inactive: 65.7% | inactive: 51.9% | inactive: 103% | inactive: 63.3% | inactive: 46.7% | inactive: 59.8% | inactive: 26.4% | inactive: 88.7% | inactive: 77.2% | inactive: 99.1% | inactive: 95.5% | inactive: 103% | inactive: 81.6% | inactive: 96% | inactive: 96.9% | inactive: 118%
6 | CCOc1ccc(N(CCCl)CCCl)cc1 |  | inactive: 36.8% | inactive: 52.2% | inactive: 92.5% |  | active: -4.3% | inactive: 72.1% | inactive: 25% | inactive: 20.4% | inactive: 28.5% | active: 6.68% | inactive: 76% | inactive: 59.8% | inactive: 94.9% | inactive: 92.4% | inactive: 77% | inactive: 74.3% | inactive: 91.1% | inactive: 107% | 
7 | Oc1ccc(Br)cc1CN(CCCl)CCCl | inactive: 93.1% | inactive: 40.7% | inactive: 54.1% | inactive: 96.2% |  |  | inactive: 95.9% | inactive: 11.8% | inactive: 28.2% | inactive: 27% | inactive: 16.7% | inactive: 75.8% | inactive: 77.6% | inactive: 95.2% | inactive: 84.3% | inactive: 74.6% | inactive: 74.3% | inactive: 76.5% | inactive: 106% | inactive: 104%
8 | ClCCN1CCN(CCCl)CC1 |  | inactive: 98.6% and inactive: 98.2% | inactive: 87.3% and inactive: 80.9% | inactive: 119% and inactive: 101% | inactive: 103% and inactive: 91.4% | inactive: 94.6% and inactive: 103% | inactive: 101% and inactive: 107% | inactive: 103% and inactive: 85.3% | inactive: 89.3% | inactive: 101% and inactive: 88% | inactive: 89.2% and inactive: 73.5% | inactive: 95.3% and inactive: 96.6% | inactive: 102% and inactive: 91.8% | inactive: 110% and inactive: 103% | inactive: 101% and inactive: 111% | inactive: 99.9% and inactive: 102% | inactive: 100% and inactive: 89.5% | inactive: 112% and inactive: 99.8% | inactive: 108% and inactive: 99.8% | inactive: 117%
9 | C1CCNCC1.O=C(O)C(O)c1ccc(N(CCCl)CCCl)cc1 (centres undefined) |  | inactive: 102% | inactive: 90.4% | inactive: 103% | inactive: 98.4% | inactive: 103% | inactive: 70.6% | inactive: 90.8% | inactive: 90.1% | inactive: 81.9% | inactive: 75.7% | inactive: 99.4% | inactive: 109% | inactive: 102% | inactive: 115% | inactive: 95.7% | inactive: 91.1% | inactive: 106% | inactive: 101% | 
10 | CC1(C)NC(=O)N(CCN(CCCl)CCCl)C1=O |  | inactive: 110% | inactive: 86.9% |  | inactive: 96.4% | inactive: 110% | inactive: 112% | inactive: 103% |  | inactive: 102% |  |  | inactive: 100% | inactive: 102% | inactive: 100% | inactive: 102% | inactive: 97.6% | inactive: 112% | inactive: 125% | inactive: 101%
11 | CCCSP(=O)(CCl)N(CCCl)CCCl (centres undefined) |  | inactive: 99.3% | inactive: 76.3% | inactive: 101% | inactive: 89.6% | inactive: 92.5% | inactive: 100% | inactive: 101% |  | inactive: 97% | inactive: 96% | inactive: 93.4% | inactive: 91.1% | inactive: 99.5% | inactive: 98.7% | inactive: 105% | inactive: 96.9% | inactive: 102% |  | inactive: 64.1%
12 | C[N+](C)(CCCl)CCCl |  | inactive: 100% | inactive: 95.9% | inactive: 115% | inactive: 102% | inactive: 111% | inactive: 115% | inactive: 96.8% |  | inactive: 103% | inactive: 98.8% | inactive: 99.3% | inactive: 93.7% | inactive: 112% | inactive: 103% | inactive: 105% | inactive: 126% | inactive: 108% | inactive: 97.5% | 
13 | BrCCN(CCBr)CCCN(CCBr)CCBr |  | inactive: 93.6% | inactive: 79.8% | inactive: 111% | inactive: 106% | inactive: 96.7% | inactive: 88.3% | inactive: 108% | inactive: 94% | inactive: 92.4% | inactive: 92.2% | inactive: 93.5% | inactive: 96.8% | inactive: 106% | inactive: 116% | inactive: 101% | inactive: 88.9% | inactive: 113% | inactive: 103% | inactive: 105%
14 | O/N=C/c1ccc(N(CCCl)CCCl)cc1 |  | inactive: 80.7% | inactive: 86.7% | inactive: 105% | inactive: 91% | inactive: 38.5% | inactive: 106% | inactive: 57.3% | inactive: 75% | inactive: 63.3% | inactive: 43.7% | inactive: 91% | inactive: 83.6% | inactive: 103% | inactive: 92.3% | inactive: 104% | inactive: 73.4% | inactive: 116% | inactive: 97.4% | inactive: 115%
15 | COc1c(C)cc(N(CCCl)CCCl)c2ccccc12 |  | inactive: 34.6% | inactive: 43.5% | inactive: 96.6% | inactive: 15.2% | active: -0.134% | inactive: 70.9% | active: 7.16% | inactive: 11.7% | active: 4.93% | active: -3.64% | inactive: 70.1% | inactive: 46.3% | inactive: 78.6% | inactive: 77.3% | inactive: 68.4% | inactive: 50% | inactive: 96.4% | inactive: 116% | inactive: 118%
16 | O=C1CCN(Cc2ccccc2)CC1 | inactive: 102% | inactive: 104% | inactive: 84.6% | inactive: 107% | inactive: 117% | inactive: 94.2% | inactive: 83.7% | inactive: 101% | inactive: 101% | inactive: 80.4% | inactive: 99.6% | inactive: 95.2% | inactive: 105% | inactive: 115% | inactive: 101% | inactive: 115% | inactive: 107% | inactive: 104% | inactive: 105% | 
17 | Cc1ccccc1NC1(C#N)CCN(Cc2ccccc2)CC1 | inactive: 108% | inactive: 108% | inactive: 84.3% | inactive: 118% | inactive: 89.2% |  |  |  | inactive: 94.6% |  |  | inactive: 104% | inactive: 102% | inactive: 90.8% | inactive: 99% | inactive: 99% | inactive: 100% | inactive: 111% |  | inactive: 117%
18 | NC(Cc1cccc(N(CCCl)CCCl)c1)C(=O)O (centres undefined) |  | inactive: 94% and inactive: 93.1% | inactive: 91.8% and inactive: 88.1% | inactive: 109% and inactive: 143% | inactive: 102% and inactive: 100% | inactive: 68.7% and inactive: 62.2% | inactive: 103% and inactive: 110% | inactive: 83.2% and inactive: 80.8% |  | inactive: 79.2% and inactive: 73.1% | inactive: 40.3% and inactive: 44% | inactive: 93.4% and inactive: 91.7% | inactive: 89.8% and inactive: 93.1% | inactive: 107% and inactive: 111% | inactive: 103% and inactive: 110% | inactive: 95.8% and inactive: 103% | inactive: 92.5% and inactive: 84.2% | inactive: 102% and inactive: 97.3% |  | inactive: 107% and inactive: 126%
